Experimental data reported in patent US20120045393A1 (priority 2009, published 2012).

Key:
[1] = tested on: EFO-27 human ovarian cancer cells (LHRH binding sites); assay: Direct binding/uptake of 177Lu-labeled LHRH-II analogs to EFO-27 cells; conditions: 177Lu-labeled analog, single concentration
Protocol: All reagents and chemicals were obtained from Sigma unless otherwise specified. LHRH analogs and ^177Lu-LHRH-II analogs were prepared by in-house chemists, as described elsewhere in the application. ^177Lu-LHRH-II analogs were not HPLC purified, as they had been prepared using formulation conditions that yielded high RCP without the need for purification. […] The HPLC-purified material was taken in a stabilizing buffer containing 5% lactose, 0.1% L-cysteine hydrochloride and 800 KIU/mL aprotinin and received as a lyophilized product and stored at −70° C. This was reconstituted in distilled water, aliquoted and stored at −70° C. The radioactivity was determined using Microplate Scintillation counter (Wallac Microbeta Trilux).
For the binding assay, EFO-27 cells were seeded onto 96-well clear flat-bottom tissue-culture-treated plates at 15,000/well density in the growth medium and used for assay on day 2 post-seeding. […]
Direct Binding: Direct binding studies were carried out by incubating appropriate ^177Lu-labeled compounds with EFO-27 cells at 4° C. for 1 h followed by washing off the unbound radioactivity. Non-specific binding was determined by incubating the ^177Lu-LHRH-II analogs in the presence of a large excess (30 uM) of cold (unlabeled) LHRH-II analogs. […]

[2] = tested on: LHRH binding sites on human ovarian cancer cells (EFO-27);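 further: Cell-associated radioactivity on confluent EFO-27 monolayers in 96-well plates, measured by microplate scintillation counting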

| Structure (SMILES) | 177Lu-LHRH II Direct binding % Bound [1] | EC50 [2] |
| --- | --- | --- |
| CN(CC(=O)N[C@@H](Cc1c[nH]cn1)C(=O)N[C@@H](Cc1c[nH]c2ccccc12)C(=O)N[C@@H](CO)C(=O)N[C@@H](Cc1c[nH]cn1)C(=O)N[C@H](CCCNC(=N)N)C(=O)N[C@@H](Cc1c[nH]c2ccccc12)C(=O)N[C@@H](Cc1ccc(C(=O)c2ccccc2)cc1)C(=O)N1CCC[C@H]1C(=O)NNC(N)=O)C(=O)c1ccc(NC(=O)CNC(=O)CN2CCN(CC(=O)O)CCN(CC(=O)O)CCN(CC(=O)O)CC2)cc1 [compound 2696] | 0.94% | 440 nM |
| N=C(N)NCCC[C@@H](NC(=O)[C@H](Cc1c[nH]cn1)NC(=O)[C@H](CO)NC(=O)[C@H](Cc1c[nH]c2ccccc12)NC(=O)[C@H](Cc1c[nH]cn1)NC(=O)[C@@H](Cc1cccc2ccccc12)NC(=O)CN1CCN(CC(=O)O)CCN(CC(=O)O)CCN(CC(=O)O)CC1)C(=O)N[C@@H](Cc1c[nH]c2ccccc12)C(=O)N[C@@H](Cc1ccc(C(=O)c2ccccc2)cc1)C(=O)N1CCC[C@H]1C(=O)NNC(N)=O [compound 2869] | 9.20% |  |
